Results on 1 compound are retold here after article PMC6430730, “A short peptide potentially promotes the healing of skin wound” (Bioscience Reports, 2019).

The assay relates to HaCaT cells. The assay is described as follows: EGFR inhibitor on the cellular wound healing activity of OA-GL12. The following applies: Gefitinib 1 μM alone. It counts as cell-based, human.

With `COc1cc2ncnc(Nc3ccc(F)c(Cl)c3)c2cc1OCCCN1CCOCC1` [Gefitinib], the “repair rates of scratch” value is “lower when compared with vehicle”.
